Chains of the proteins cited; added tags and fusions are not shown. Residues count along the entry.
UniProt P14779, 2-472: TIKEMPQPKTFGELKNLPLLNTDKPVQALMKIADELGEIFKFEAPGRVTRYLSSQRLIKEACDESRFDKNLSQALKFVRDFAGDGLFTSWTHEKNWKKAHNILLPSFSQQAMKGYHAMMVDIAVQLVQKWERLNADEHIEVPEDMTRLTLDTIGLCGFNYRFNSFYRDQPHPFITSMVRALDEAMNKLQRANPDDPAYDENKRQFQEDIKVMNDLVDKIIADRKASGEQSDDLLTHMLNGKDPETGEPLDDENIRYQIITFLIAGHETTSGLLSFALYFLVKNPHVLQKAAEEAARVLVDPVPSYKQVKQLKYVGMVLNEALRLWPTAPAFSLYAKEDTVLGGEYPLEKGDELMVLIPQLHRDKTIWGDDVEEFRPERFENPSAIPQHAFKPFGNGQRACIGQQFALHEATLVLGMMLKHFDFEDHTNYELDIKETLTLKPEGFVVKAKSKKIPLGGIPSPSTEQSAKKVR
UniProt P14779, 2-472 A83F/F88V: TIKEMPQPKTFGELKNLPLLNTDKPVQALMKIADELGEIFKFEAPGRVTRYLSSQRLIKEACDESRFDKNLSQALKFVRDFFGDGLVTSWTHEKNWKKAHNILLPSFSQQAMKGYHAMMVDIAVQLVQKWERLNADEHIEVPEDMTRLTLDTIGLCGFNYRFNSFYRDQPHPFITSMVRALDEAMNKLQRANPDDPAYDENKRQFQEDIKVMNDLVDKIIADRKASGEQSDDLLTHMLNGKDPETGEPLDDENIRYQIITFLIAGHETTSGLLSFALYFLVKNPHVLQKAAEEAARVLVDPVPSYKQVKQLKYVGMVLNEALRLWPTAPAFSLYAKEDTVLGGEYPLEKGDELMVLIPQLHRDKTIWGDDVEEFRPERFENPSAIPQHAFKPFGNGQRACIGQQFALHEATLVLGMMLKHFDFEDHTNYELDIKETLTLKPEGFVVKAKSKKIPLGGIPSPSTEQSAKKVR

According to article PMC6367340, “Novel insights into P450 BM3 interactions with FDA-approved antifungal azole drugs” (Scientific Reports, 2019):

How the values were obtained:
WT BM3 heme domain = target: T1, WT BM3 heme domain (Priestia megaterium, UniProt P14779); assay type: binding, Bacillus megaterium
T1 construct: The BM3 heme domain proteins (WT and the DM A82F/F87V variant) used in this study were expressed as described in our previous studies; made in house; host or cells: E. coli BL21 (DE3)
Text: (§1) This leads to dioxygen (O2) binding to heme iron and to the progression of the P450 catalytic cycle that leads to monooxygenation of the substrate. […] P450 UV-visible binding assays and other spectroscopic studies using azoles are often hindered by the low solubility of many of these drugs. […] The azoles used range widely in size and structure, and contain either an imidazole or a triazole functional group (or two triazole groups in the case of fluconazole). […] Spectral binding data were fitted using hyperbolic (Michaelis-Menten)[30] or tight-binding (Morrison)[31] equations, or by using the Hill function[32] in cases where there was a clear sigmoidal dependence of heme absorbance change on azole drug concentration.
(§2) Experiments were performed using a Cary 50 UV-Visible spectrophotometer (Agilent Technologies Ltd). WT and DM heme domains at concentrations of ~2–4 μM were used, and binding titrations were done by the addition of small (typically 0.2–0.4 μL) volumes of azole ligand stocks (1, 10 or 30 mM, to minimize amounts of solvent carrier used) to a 1 mL heme domain sample in a quartz cuvette. An extinction coefficient of 95 mM^−1 cm^−1 was used for the low-spin forms of the WT and DM heme domains. […] Azole drugs were obtained from Merck Chemicals (Nottingham, UK). All azole compounds used in these and other experiments done in this manuscript were sourced from Sigma Aldrich (Cambridge, UK).
(§3) Data were processed by the subtraction of the spectrum of each successive ligand-bound form (from a specific titration set) from the spectrum of the ligand-free enzyme. This produced a set of difference spectra (for each particular azole titration), from which wavelengths associated with the absorbance minimum (Amin) and maximum (Amax) were readily identified. For each titration point, an absorbance difference value was calculated as Amax minus Amin, using the same wavelength pair throughout an individual experiment. These values were then plotted against the relevant azole ligand concentrations used. […] Assays were done using 25 mM KPi (pH 7) at a constant temperature of 30 °C.

[1] = target: T2, BM3 A82F/F87V double mutant (DM) heme domain (Priestia megaterium, UniProt P14779, A83F/F88V); assay type: binding, Bacillus megaterium
T2 construct: The BM3 heme domain proteins (WT and the DM A82F/F87V variant) used in this study were expressed as described in our previous studies; made in house; host or cells: E. coli BL21 (DE3)
Text: as §1, §2, §3

[2] = maximal peak-minus-trough value divided by P450 Soret peak value

In the case of `Clc1ccc(COC(Cn2ccnc2)c2ccc(Cl)cc2Cl)cc1` (centres unmarked) [Econazole nitrate], the “Delta Abs Peak (wavelength maximum of absorbance difference spectrum)” value (WT BM3 heme domain) was 434 nm, the “Delta Abs Trough (wavelength minimum of absorbance difference spectrum)” value (WT BM3 heme domain) was 413 nm and the “Delta Abs/Soret Peak” value (WT BM3 heme domain; [2]) was 0.27. The “Soret Shift (final Soret wavelength at apparent saturation)” value (WT BM3 heme domain; starting wavelength 418 nm) was 421 nm, the “Delta Abs Peak (wavelength maximum of absorbance difference spectrum)” value [1] was 435 nm and the “Delta Abs Trough (wavelength minimum of absorbance difference spectrum)” value [1] was 414 nm. The “Delta Abs/Soret Peak” value [1, 2] was 0.47 and the “Soret Shift (final Soret wavelength at apparent saturation)” value ([1]; starting wavelength 418 nm) was 423 nm.
